# In patent publication US20200362306A1 (published 2020):
# Chains of the proteins cited; added tags and fusions are not shown. A line that says so, or that is headed by a name, gives the form on record, which may keep a tag or linker.
# UniProt Q13421, other isoform, or with tags, fused parts or gaps limits assumed: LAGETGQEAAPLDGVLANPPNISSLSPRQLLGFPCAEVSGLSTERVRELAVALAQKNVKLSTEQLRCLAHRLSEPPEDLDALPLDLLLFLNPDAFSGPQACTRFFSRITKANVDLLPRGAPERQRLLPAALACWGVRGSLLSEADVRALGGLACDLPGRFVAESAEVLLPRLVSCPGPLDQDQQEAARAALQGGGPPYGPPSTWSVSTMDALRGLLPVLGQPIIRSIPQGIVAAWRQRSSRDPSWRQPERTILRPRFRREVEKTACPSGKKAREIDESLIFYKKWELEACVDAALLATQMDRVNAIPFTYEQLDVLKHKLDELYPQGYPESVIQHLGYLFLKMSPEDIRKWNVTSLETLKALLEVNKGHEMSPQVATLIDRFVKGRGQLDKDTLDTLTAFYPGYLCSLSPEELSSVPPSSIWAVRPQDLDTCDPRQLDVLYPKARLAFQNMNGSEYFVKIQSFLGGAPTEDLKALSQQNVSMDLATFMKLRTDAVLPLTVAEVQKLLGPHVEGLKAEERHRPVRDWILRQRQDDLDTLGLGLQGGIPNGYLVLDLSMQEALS
# B1: SD1 CD3ε-TFP (other, not shown: large carriers)
# chain: EVQLVESGGGLVQPGGSLRLSCAASGGDWSANFMYWYRQAPGKQRELVARISGRGVVDYVESVKGRFTISRDNSKNTLYLQMNSLRAEDTAVYYCAVASYWGQGTLVTVSSDGNEEMGGITQTPYKVSISGTTVILTCPQYPGSEILWQHNDKNIGGDEDDKNIGSDEDHLSLKEFSELEQSGYYVCYPRGSKPEDANFYLYLRARVCENCMEMDVMSVATIVIVDICITGGLLLLVYYWSKNRKAKAKPVTRGAGAGGRQRGQNKERPPPVPNPDYEPIRKGQRDLYSGLNQRRI
# Biological target: human mesothelin expressed on target cells (human, UniProt Q13421)
# Test: cell-based or functional assay
binder,measurement,value
B1,"tumor cell lysis, luciferase assay, 1-to-1 effector to target ratio, patients 1, 2, 4 and 5",~50%
same,"tumor cell lysis, luciferase assay, 1-to-5 effector to target ratio, patients 4 and 5",~50%
same,"tumor cell lysis, luciferase assay, 5-to-1 effector to target ratio, patient 3",~35%
